Reference: US9127079B2, “Inhibitors of phosphatase and tensin homolog (PTEN) conjugates” (THE UNIVERSITY OF BRITISH COLUMBIA, priority 2009, dated 2015)

Legend:
[1] = system: cultured hippocampal neurons; test: Neuronal death by nuclei staining (Hoechst 33342), NMDA excitotoxicity; type: cell-based, rat; conditions: peptide treatment
Method: (§1) Dissociated cultures of rat cortical or hippocampal neurons were prepared from 18-d-old Sprague Dawley rat embryos as described previously (Mielke and Wang 2005). To obtain mixed cultures enriched with neurons, uridine (10 μM) and 5-Fluor-T-deoxyuridine (10 μM) were added to the culture medium at 3 d in vitro (DIV) and maintained for 48 h to inhibit non-neuronal cell proliferation before the cultures were returned to the normal culture medium. Mature neurons (12-14 DIV) were used for experiments. […]
(§2) Necrotic neuronal death was quantified by measuring lactate dehydrogenase (LDH) release 20 h after treatments using a Cyto Tox™ 96 assay kit (Promega™, Madison, Wis.). Absorbance readings were measured using a spectrophotometric microplate reader. Apoptotic neuronal death was determined by visualizing the nucleus condensation and fragmentation of neurons stained with Hoechst-33342™. Images were taken with a Leica DMIRE2™ fluorescence microscope. […] These observations were quantified by double-blind counting of apoptotic and total neurons in each visual field and expressed as percentage apoptosis. […] Data are expressed as the difference in apoptosis relative to control and are expressed as a percentage.

[2] = system: cultured hippocampal neurons; test: Neuronal death by LDH assay, NMDA excitotoxicity; type: cell-based, rat; conditions: peptide treatment
Method: as §1, §2

## KEIVSRNKRRYQED-YGRKKRRQRRR
[1]
  NMDAR-mediated cell death, nuclei staining: significantly prevents
[2]
  NMDAR-mediated cell death, LDH assay: significantly prevents
